According to BindingDB's records for doi:10.1016/s0960-894x(03)00532-8 (British Biotech Pharmaceuticals, 2003):

Biological target: Peptide deformylase (Escherichia coli) (UniProt P0A6K3)
Assay: Inhibition against Escherichia coli peptide deformylase

CCCC[C@H](CCN(O)C=O)C(=O)N[C@H](C(=O)N(C)C)C(C)(C)C [(R)-2-[2-(Formyl-hydroxy-amino)-ethyl]-hexanoic acid ((S)-1-dimethylcarbamoyl-2,2-dimethyl-propyl)-amide]
IC50: 1000 nM
